Measurements published in US11771083B2, “Flower thinning composition and flower thinning method using same” (priority 2018, dated 2023).

How the values were obtained:
honeybees [1] = assay: Honeybee toxicity test depending on spray concentration of formulations (Test Example 6); assay type: in vivo; settings: 96 hours
honeybees [2] = assay: Acute contact toxicity to honeybees, active ingredients in acetone (Test Example 4); assay type: in vivo; settings: treatment dose 50 μg per honeybee in acetone; 72 hours after treatment
honeybees [3] = settings: active ingredient dissolved in acetone; treatment dose 100 μg

In the case of `CCCCCCCCCCO` [1-Decanol, 1-decanol], the “Lethargy + lethality (%)” value (honeybees [1]; spray concentration 0.2%) is reported as 33.3% and the “Lethargy + lethality (%)” value (honeybees [1]; spray concentration 0.4%) is reported as 43.3%.
With `CCCCCCCCO` [1-Octanol, 1-octanol] the “Lethargy + lethality (%)” value (honeybees [1]; spray concentration 0.2%) was 13.3%, the “Lethargy + lethality (%)” value (honeybees [1]; spray concentration 0.4%) was 13.3% and the “Lethality (%)” value (honeybees [2]) was 26.7%.
For `CCCCCCCCCC(=O)O` [1-decanoic acid, reference compound], the “Lethality (%)” value (honeybees [2]) was 43.3%.
For `CCCCCCCO` [1-heptanol], the “Lethality (%)” value (honeybees [3]) was 33.3%.
`OC1CCCCC1` [Cyclohexanol, cyclohexanol] was tested, and the “Lethality (%)” value (honeybees [3]) was 33.3%.

Read-outs that look alike come from different tables or passages of the source.
